# Where two headings read alike, the source gives them in different places.
# Settings: rat
# Experimental: A series concentration mixed reference solution with different concentrations was added to 100 μL plasma, and was treated according to the method under Section 4.6 to obtain the matrix standard curve sample. Samples with concentrations of 400, 100, and 10 ng/mL, respectively, were taken as quality control (QC) samples of high, medium, and low concentrations (HQC, MQC, LQC). The method was validated, including linearity, inter-day/intra-day precision, repeatability, stability, extraction recovery, and matrix effect, according to FDA bioanalytical method validation guidelines.
compound,measurement,setting,value
"O=c1c(O)c(-c2ccc(O)cc2)oc2cc(O)cc(O)c12 [Kaempferol, kaempferol]",Stability RE (%),50 ng/mL,93.25%
same,Stability RE (%),"10 days, 10 ng/mL",97.80%

# Source: PMC11124525, “Pharmacokinetic–Pharmacodynamic Correlation Analysis of Rhodiola crenulata in Rats with Myocardial Ischemia” (Pharmaceuticals, 2024)
